Read-outs that look alike come from different tables or passages of the source. Each block holds one compound with its values, some of them ahead of it.
Columns and labels:
Assay in all cases: cells
BT-549 = details: Homo sapiens, BT-549, 120 h, read-out: Saracatinib GI50 (in uM)
MDA-MB-134VI = details: Homo sapiens, MDA-MB-134-VI, 120 h, read-out: Saracatinib GI50 (in uM)
HCC-1954 = details: Homo sapiens, HCC1954, 120 h
KPL-4 = details: KPL4, 120 h
MDA-MB-436 = details: Homo sapiens, MDA-MB-436, 120 h, read-out: Saracatinib GI50 (in uM)
SKBR-3 = details: Homo sapiens, SK-BR-3, 120 h, read-out: Saracatinib GI50 (in uM)
T-47D = details: Homo sapiens, T47D, 120 h, read-out: Saracatinib GI50 (in uM)
ZR75.1 = details: Homo sapiens, ZR-75-1, 120 h, read-out: Saracatinib GI50 (in uM)
MDA-MB-157 = details: Homo sapiens, MDA-MB-157, 120 h, read-out: Saracatinib GI50 (in uM)
MCF-7 = details: Homo sapiens, MCF7, 120 h, read-out: Saracatinib GI50 (in uM)
BT-474 = details: Homo sapiens, BT-474, 120 h
HCC-1569 = details: Homo sapiens, HCC1569, 120 h
MDA-MB-231 = details: Homo sapiens, MDA-MB-231, 120 h, read-out: Saracatinib GI50 (in uM)
SUM44PE = details: 120 h, read-out: Saracatinib GI50 (in uM)
CAMA-1 = details: Homo sapiens, CAMA-1, 120 h
JIMT-1 = details: Homo sapiens, JIMT-1, 120 h
[1] = read-out: Saracatinib GI50 (in uM)
[2] = read-out: Imatinib GI50 (in uM)

GI50 (BT-549): 5.07 µM
GI50 (MDA-MB-134VI): 24.9 µM
GI50 (HCC-1954; [1]): 0.568 µM
GI50 (MDA-MB-436): 12.6 µM
GI50 (SKBR-3): 4.99 µM
GI50 (T-47D): 3.46 µM
GI50 (MDA-MB-157): 6.83 µM
GI50 (MCF-7): 0.398 µM
GI50 (BT-474; [1]): 1.05 µM
GI50 (HCC-1569; [1]): 2.81 µM
GI50 (MDA-MB-231): 0.983 µM
SMILES: CN1CCN(CCOc2cc(OC3CCOCC3)c3c(Nc4c(Cl)ccc5c4OCO5)ncnc3c2)CC1 [saracatinib]
GI50 (KPL-4; [1]): 5.79 µM
GI50 (ZR75.1): 0.248 µM
GI50 (SUM44PE): 26.9 µM
GI50 (CAMA-1; [1]): 10.3 µM
GI50 (JIMT-1; [1]): 1.33 µM

GI50 (HCC-1954; [2]): 4.65 µM
GI50 (BT-474; [2]): 8.8 µM
GI50 (HCC-1569; [2]): 8.84 µM
SMILES: Cc1ccc(NC(=O)c2ccc(CN3CCN(C)CC3)cc2)cc1Nc1nccc(-c2cccnc2)n1 [Imatinib]
GI50 (KPL-4; [2]): 8.52 µM
GI50 (CAMA-1; [2]): 8.64 µM
GI50 (JIMT-1; [2]): 8.92 µM
